We go through one compound from ChEMBL document CHEMBL3272293, “Use of distribution coefficients in quantitative structure-activity relationships” (J Med Chem, 1977).

Type in all cases: functional
Test [1] can be described thus: Uncoupling of oxidative phosphorylation in rat liver mitochondria at pH 6 relative to control.
The nature of test [2]: Uncoupling of oxidative phosphorylation in rat liver mitochondria at pH 7 relative to control.
Test [3] is described as follows: Uncoupling of oxidative phosphorylation in rat liver mitochondria at pH 5 relative to control.
The nature of test [4]: Uncoupling of oxidative phosphorylation in rat liver mitochondria at pH 8 relative to control.

On to `O=[N+]([O-])c1cccc([N+](=O)[O-])c1O`, for which the fold change (FC) came to 4.22 in test [1], 3.68 in test [2], 4.77 in test [3] and 3.12 in test [4].
